The record followed here is patent publication US8871706B2, “Method for inhibiting inflammation and pre-inflammatory cytokine/chemokine expression using a ghrelin analogue” (Ipsen Pharma S.A.S., priority 2007, dated 2014).

Sequences of proteins named here, by UniProt entry; tags and fusion partners are left off.
UniProt Q92847, whole entry: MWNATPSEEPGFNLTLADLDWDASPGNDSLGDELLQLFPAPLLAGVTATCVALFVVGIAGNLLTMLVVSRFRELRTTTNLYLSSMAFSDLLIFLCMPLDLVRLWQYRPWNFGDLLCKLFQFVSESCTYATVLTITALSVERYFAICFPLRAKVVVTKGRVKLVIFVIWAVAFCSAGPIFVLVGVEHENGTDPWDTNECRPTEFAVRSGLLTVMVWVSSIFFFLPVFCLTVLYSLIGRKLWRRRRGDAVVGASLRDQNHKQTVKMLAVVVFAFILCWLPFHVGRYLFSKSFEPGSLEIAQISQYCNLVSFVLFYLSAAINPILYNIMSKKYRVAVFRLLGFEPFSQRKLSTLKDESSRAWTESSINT

The target in this assay is T1, human recombinant GHS receptor (Homo sapiens, UniProt Q92847).
T1 construct: The full length human GHS-R was subcloned into the mammalian expression vector pcDNA 3.1; expressed in transfected cells; membranes prepared by homogenization
Description: GHS-Receptor Binding Assay. The settings on record: (125I)ghrelin, membranes of CHO-K1 cells expressing hGHS-R, 60 minute incubation at 4° C.

Consider “H-Gly-Ser-Ser-Phe-Leu-Ser-Pro-Glu-His-Gln-Arg-Val-Gln-Gln-Arg-Lys-Glu-Ser-Lys-Lys-Pro-Pro-Ala-Lys-Leu-Gln-Pro-Arg-NH2 [hGhrelin(1-28)-NH2, reference compound]”, for which the Ki was 24.2 nM.

A word on the Ki: it is the dissociation constant of the complex between target and ligand, obtained from inhibition or displacement.
